Results as given in ChEMBL document CHEMBL3407483, “Novel 3-nitrotriazole-based amides and carbinols as bifunctional antichagasic agents” (J Med Chem, 2015).

How the values were obtained:
Trypanosoma cruzi = assay: Activity of his-tagged recombinant Trypanosoma cruzi type-1 nitroreductase assessed as oxidized NADH level per mg of protein after 5 mins by absorption spectrum analysis relative to benznidazole
Trypanosoma brucei = assay: Activity of his-tagged recombinant Trypanosoma brucei type-1 nitroreductase assessed as oxidized NADH level per mg of protein after 5 mins by absorption spectrum analysis relative to benznidazole
[1] = Ratio for his-tagged recombinant Trypanosoma brucei type-1 nitroreductase activity over his-tagged recombinant Trypanosoma cruzi type-1 nitroreductase activity

O=[N+]([O-])c1ncn(CC(O)(Cn2cncn2)c2ccc(-c3ccccc3)cc2)n1 (configuration not stated)
2: fold change (FC) (Trypanosoma cruzi) | fold change (FC) (Trypanosoma brucei) | Ratio [1]

CC(O)(Cn1cnc([N+](=O)[O-])n1)c1ccc(-n2ccnc2)cc1 (configuration not stated)
2: fold change (FC) (Trypanosoma cruzi) | fold change (FC) (Trypanosoma brucei) | Ratio [1]

O=[N+]([O-])c1ncn(CC(O)(Cn2cncn2)c2ccc(F)cc2F)n1 (configuration not stated)
2: fold change (FC) (Trypanosoma cruzi) | fold change (FC) (Trypanosoma brucei) | Ratio [1]

N#Cc1ccc(-c2ccc(NC(=O)Cn3cnc([N+](=O)[O-])n3)cc2)cc1
2: fold change (FC) (Trypanosoma cruzi) | fold change (FC) (Trypanosoma brucei) | Ratio [1]
